This is a selection; strong and weak results do not stand in their true shares. Some tests of the compounds listed are not included; inactive here does not mean inactive elsewhere. Activity calls are given as the source filed them. Calls come from the whole dose curve; as a rule, active = well fitted inhibition curve with a large enough effect; inconclusive = small, poorly fitted or top-dose-only effect; inactive = flat fitted curve, though single readings scatter.
The molecules below were run against ATP-dependent DNA helicase Q1 (Homo sapiens) (UniProt P46063) (assay: qHTS Assay for Inhibitors of RecQ-Like Dna Helicase 1 (RECQ1)). Conditions: RECQ1 DNA unwinding, red fluorescence kinetic read; activity, negative = inhibition: at 57.3 µM (top of the series).
Text: Survival of cells and the faithful propagation of the genome depend on elaborate mechanisms of detecting and repairing DNA damage. Treatment of advanced cancer relies on radiation therapy or chemotherapy, which kill cancer cells by causing extensive DNA damage. It is often found, that cancer cells develop resistance to therapy through enhanced activity of DNA repair functions; this has led to an increased interest in developing drugs that interfere with DNA repair, which could sensitize cancer cells to conventional therapy.
This validation qHTS assay pertains to human RECQ1, which is important in resolving abnormal DNA structures formed during replication or homologous recombination. Shutting down the expression of RECQ1 leads to chromosomal instability and higher radiation sensitivity in cultured cells.
The validation assay was a fluorescence quenching based kinetic qHTS for RECQ1 Helicase DNA unwinding. The activity was measured as ATP-dependent separation of a 20-bp DNA duplex extended by 30-nt single-stranded tails (forked duplex). The forked DNA substrate was tagged with rhodamine fluorophore (carboxytetramethyl rhodamine, TAMRA) and BHQ-2 (Black Hole Quencher 2) dark quencher. Strand separation results in an increase in the fluorescence of TAMRA (excitation 525 nm, emission 598 nm). This substrate construct operates in a red-shifted region where very few compound library members have been noted to fluoresce (PubChem AIDs 593 and 594). An additional feature of the assay is the inclusion of 2.5 ug/ml poly (dIdC), to reduce interference by compounds such as DNA intercalators, a major source of false inhibitors.
Opher Gileadi, Structural Genomics Consortium, University of Oxford
Screening Center PI: Austin, C.P.
Screening Center: NIH Chemical Genomics Center [NCGC]
Three uL of reaction buffer (25 mM Tris-HCl (pH 8.0), 5 mM NaCl, 2 mM MgCl2, 1mM DTT, 0.01% Tween- 20, and 2.5 ug/ml poly(dI-dC), including enzyme (50 nM RECQ1T1), were dispensed into a 1536-well Greiner black assay plate via solenoid-valve based nanoliter dispensers. Compounds (23 nl each in columns 5-48) and control (23 nl each in column 2 as dose-response) were transferred via a Kalypsys pintool equipped with a 1536-pin array. The plates were incubated for 15 min at room temperature, and then 1 ul of substrates (200 nM DNA and 2 mM ATP, final concentrations) was added to start the reaction. The plate was transferred into a ViewLux high-throughput CCD imager where the reaction progress was measured in a discontinuous kinetic mode (two reads spaced 2 hours apart, with intermediate room temperature incubation of the covered assay plate) by using standard red-fluorescence optics (excitation filter 525 nm, emission filter 598 nm). Enzyme-free and vehicle (DMSO) controls were included for signal normalization.
Note: nearly all actives have a fitted effect of over 30% in size.
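Throughout, for activity, negative = inhibition: plate controls were vehicle for no effect and no enzyme for full effect.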

The chains behind the UniProt entries cited, without tags or fusion partners.
UniProt P46063, whole entry: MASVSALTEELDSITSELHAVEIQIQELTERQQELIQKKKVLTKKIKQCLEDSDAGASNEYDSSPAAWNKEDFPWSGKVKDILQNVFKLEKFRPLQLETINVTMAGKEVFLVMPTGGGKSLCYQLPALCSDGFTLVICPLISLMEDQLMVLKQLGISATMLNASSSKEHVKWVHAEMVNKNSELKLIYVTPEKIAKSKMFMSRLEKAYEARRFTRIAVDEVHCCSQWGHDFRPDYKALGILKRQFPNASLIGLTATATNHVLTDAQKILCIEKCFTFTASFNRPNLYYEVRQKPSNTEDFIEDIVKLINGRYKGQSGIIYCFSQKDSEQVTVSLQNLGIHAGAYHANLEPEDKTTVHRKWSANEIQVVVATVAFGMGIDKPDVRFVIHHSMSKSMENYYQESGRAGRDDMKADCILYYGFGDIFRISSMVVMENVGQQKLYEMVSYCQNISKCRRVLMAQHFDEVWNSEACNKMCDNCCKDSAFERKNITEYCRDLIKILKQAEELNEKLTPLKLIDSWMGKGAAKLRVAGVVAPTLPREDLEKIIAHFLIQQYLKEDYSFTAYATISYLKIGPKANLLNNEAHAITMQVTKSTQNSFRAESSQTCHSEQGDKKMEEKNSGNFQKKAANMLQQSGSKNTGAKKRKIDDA

| SMILES | activity, negative = inhibition |
| --- | --- |
| CN(C)c1cccc(C(=O)NCC2(N(C)C)CCCCC2)c1 | inactive: -8.63% |
| COc1ccc(Br)c(C(=O)NCC2(N3CCCCC3)CCCCC2)c1 | inactive |
| O=C(OC1CN2CCC1CC2)C(CO)(c1ccccc1)c1ccccc1 (configuration not stated) | inactive: -8.13% |
| COc1cccc(C(=O)NCC2(N3CCCCC3)CCCCC2)c1 | inactive: -4.14% |
| CCN1CCCC(OC(=O)C2(O)c3ccccc3C=Cc3ccccc32)C1 (configuration not stated) | inactive: -6.28% |
| C=CCN1CCN(CCOC(=O)C(O)(c2ccccc2)c2ccccc2)CC1 | inactive |
| CCCCC/C=C\C/C=C\C/C=C\C/C=C\CCCCP(=O)(F)OC (configuration not stated) | inactive |
| CN(C)C1CCCC1OC(=O)C(O)(c1ccccc1)c1ccccc1 (configuration not stated) | inactive: -4.99% |
| Cc1ccccc1C(=O)NCC1(N2CCCCC2)CCCCC1 | inactive: -0.201% |
| CC(C)N1C(=O)CC2(CCN(CCOC(=O)C(O)(c3ccccc3)c3ccccc3)CC2)C1=O | inactive: -9.52% |
| CCN(CC)CC(C)C(C)OC(=O)C(O)(c1ccccc1)c1ccccc1 (configuration not stated) | inactive: 3.04% |
| O=C(NCC1(N2CCCCC2)CCCCC1)c1cc([N+](=O)[O-])ccc1Cl | inactive: -2% |

From PubChem BioAssay AID2549 (National Center for Advancing Translational Sciences (NCATS), 2010)
